The target of this assay is 5-hydroxytryptamine receptor 1D (Homo sapiens, UniProt P28221).

Chains of the proteins cited; added tags and fusions are not shown. Lines headed by an entry give the natural chain unless they say otherwise; changes in a name come on top.
UniProt P28221: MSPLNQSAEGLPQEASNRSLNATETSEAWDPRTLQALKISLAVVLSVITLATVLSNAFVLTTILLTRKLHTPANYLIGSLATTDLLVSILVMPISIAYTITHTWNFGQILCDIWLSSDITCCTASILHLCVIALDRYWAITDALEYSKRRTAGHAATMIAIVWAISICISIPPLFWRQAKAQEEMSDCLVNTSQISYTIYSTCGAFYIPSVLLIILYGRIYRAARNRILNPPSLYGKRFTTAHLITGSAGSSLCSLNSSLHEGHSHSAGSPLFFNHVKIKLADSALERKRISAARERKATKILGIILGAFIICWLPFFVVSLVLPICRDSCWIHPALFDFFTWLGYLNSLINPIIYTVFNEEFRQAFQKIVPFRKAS

This note sets out measurements from BindingDB's records for PubMed 1652050 (Seattle Veterans Affairs Medical Center, 1991).

One may read the Ki as the equilibrium dissociation constant of an inhibitor or competing ligand from its target. Lower therefore signals tighter binding. For the molecule `COc1ccc2[nH]cc(CCN)c2c1` [tryptamine, 5-Methoxy], the inhibition constant Ki came out at 2.2 nM.
